This note sets out measurements from PMC3091868, “A Novel Structural Framework for α1A/D-Adrenoceptor Selective Antagonists Identified Using Subtype Selective Pharmacophores” (PLoS ONE, 2011).

By UniProt entry, the sequences of proteins in these tests, tags left out.
UniProt P18841, whole entry: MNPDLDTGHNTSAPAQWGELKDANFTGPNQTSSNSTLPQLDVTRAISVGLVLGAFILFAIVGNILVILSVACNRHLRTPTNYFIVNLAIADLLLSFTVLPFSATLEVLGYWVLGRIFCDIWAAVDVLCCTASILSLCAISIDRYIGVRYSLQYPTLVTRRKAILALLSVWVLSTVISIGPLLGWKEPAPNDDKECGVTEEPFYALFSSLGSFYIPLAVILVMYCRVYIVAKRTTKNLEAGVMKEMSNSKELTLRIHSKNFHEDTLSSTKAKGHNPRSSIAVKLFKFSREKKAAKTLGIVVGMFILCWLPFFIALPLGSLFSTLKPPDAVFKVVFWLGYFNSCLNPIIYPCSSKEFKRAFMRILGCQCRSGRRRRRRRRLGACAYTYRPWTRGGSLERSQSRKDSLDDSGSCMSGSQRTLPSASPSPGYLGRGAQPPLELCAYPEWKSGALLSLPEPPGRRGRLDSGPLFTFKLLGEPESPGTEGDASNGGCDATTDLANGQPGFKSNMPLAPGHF
UniProt P23944, whole entry: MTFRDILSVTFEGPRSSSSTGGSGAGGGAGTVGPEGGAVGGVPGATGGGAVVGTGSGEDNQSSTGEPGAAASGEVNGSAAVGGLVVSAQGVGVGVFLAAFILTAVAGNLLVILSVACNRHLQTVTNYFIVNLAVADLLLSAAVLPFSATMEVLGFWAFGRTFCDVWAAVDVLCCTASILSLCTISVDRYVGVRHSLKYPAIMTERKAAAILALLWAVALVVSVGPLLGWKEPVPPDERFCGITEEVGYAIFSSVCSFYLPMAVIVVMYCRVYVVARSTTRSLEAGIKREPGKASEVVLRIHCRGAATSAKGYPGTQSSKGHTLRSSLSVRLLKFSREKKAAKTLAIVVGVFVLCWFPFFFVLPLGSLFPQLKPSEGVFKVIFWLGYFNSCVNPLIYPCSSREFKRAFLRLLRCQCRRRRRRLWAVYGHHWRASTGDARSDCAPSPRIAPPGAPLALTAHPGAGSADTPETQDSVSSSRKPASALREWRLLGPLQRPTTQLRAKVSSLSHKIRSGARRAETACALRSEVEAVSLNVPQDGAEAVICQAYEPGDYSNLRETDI

Holding throughout (set-up): species or system rodent
Holding throughout (conditions): saturation binding, membrane-expressed receptor, n = 3–4

One assay addresses T1, α1A-AR (Rattus norvegicus, UniProt P43140).
T1 construct: expressed in transfected cells; host or cells: COS-1
T1 sequence (P43140 1-466): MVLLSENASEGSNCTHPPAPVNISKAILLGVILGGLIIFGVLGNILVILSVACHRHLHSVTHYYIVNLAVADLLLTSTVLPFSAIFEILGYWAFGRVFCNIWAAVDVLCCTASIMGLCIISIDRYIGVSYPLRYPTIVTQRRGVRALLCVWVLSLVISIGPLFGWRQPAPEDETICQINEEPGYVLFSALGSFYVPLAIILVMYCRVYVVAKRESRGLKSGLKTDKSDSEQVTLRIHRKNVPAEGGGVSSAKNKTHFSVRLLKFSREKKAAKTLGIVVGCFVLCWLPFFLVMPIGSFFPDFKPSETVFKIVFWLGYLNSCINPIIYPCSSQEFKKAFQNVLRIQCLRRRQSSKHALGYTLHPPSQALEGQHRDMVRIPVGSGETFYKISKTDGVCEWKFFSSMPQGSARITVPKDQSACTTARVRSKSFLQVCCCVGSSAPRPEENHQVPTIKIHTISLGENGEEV
Description: [3H]Prazosin competition/saturation binding on COS-1 membranes expressing α1A-AR. On the procedure: (§1) COS-1 cells (American Type Culture Collection, Manassas, VA) were cultured in Dulbecco's modified Eagle's medium (DMEM) supplemented with 10% (v/v) heat inactivated fetal bovine serum (FBS), 100 µg ml^−1 penicillin and 100 µg ml^−1 streptomycin. Cells were maintained and passaged upon reaching confluence by standard cell culture techniques. pMT4 plasmids containing rodent α1-AR (a kind gift from Prof R Graham, Victor Chang Cardiac Research Institute, Australia) were used to transfect cells. Transient expression in COS-1 cells was accomplished using two techniques; the diethylaminoethane-dextran (DEAE-dextran) and Lipofectamine 2000 (Invitrogen, Carlsbad, CA, USA) methods. Briefly, the DEAE-dextran method involved washing of cells with phosphate buffered saline (PBS), followed by the addition of the DNA mixture (12–25 µg/4×10^6 cells) in DEAE-dextran (10 mg ml^−1) to cells at 60–80% confluency. Following a 3 h incubation, a PBS wash with 10% DMSO was used to shock the cells. Cells were harvested 72 h post transfection. For the Lipofectamine 2000 method, cells were incubated for 12 h with Opti-MEM (GIBCO BRL, Gaithersburg, MD, USA) containing Lipofectamine 2000.
(§2) Membranes were prepared as described previously. Briefly, COS-1 cells were transiently transfected using the DEAE-dextran method. […] Protein concentration was determined using Bradford reagent (Sigma, St Louis, MO, USA). […]

Another assay addresses T2, α1B-AR (Mesocricetus auratus, UniProt P18841).
T2 construct: expressed in transfected cells; host or cells: COS-1
The experiment in a line: [3H]Prazosin competition/saturation binding on COS-1 membranes expressing α1B-AR. On the procedure:
as §1, §2

The target of another assay is T3, α1D-AR (Rattus norvegicus, UniProt P23944).
T3 construct: expressed in transfected cells; host or cells: COS-1
Description: [3H]Prazosin competition/saturation binding on COS-1 membranes expressing α1D-AR. On the procedure:
as §1, §2

For [^3H]Prazosin [reference compound], the results for the Kd on α1A-AR, at α1B-AR and on α1D-AR were 0.275 ± 0.059 nM, 0.2 ± 0.046 nM and 0.153 ± 0.033 nM, respectively.
